Measurements taken from ChEMBL document CHEMBL5352402, “Discovery of novel non-nucleoside inhibitors with high potency and selectivity for DNA methyltransferase 3A” (Eur J Med Chem, 2022).

What was measured:
[1] = organism: Homo sapiens; assay: (§1) Selectivity index, ratio of IC50 for inhibition of N-terminal GST-tagged full-length recombinant human DNMT1 to IC50 for inhibition of N-terminal His-tagged human DNMT3A (623 to 912 residues)/N-terminal GST-tagged human DNMT3L (160 to 387 residues) co-expressed in baculovirus infected Sf9 cells
[2] = organism: Homo sapiens; assay: as §1, with “GST-tagged” for “GST-tagged full-length recombinant”, “G9a expressed in baculovirus infected Sf9 cells” for “DNMT1”
[3] = organism: Homo sapiens; assay: Selectivity index, ratio of IC50 for inhibition of N-terminal His-tagged human DNMT3B (564 to 853 residues)/N-terminal GST-tagged human DNMT3L (160 to 387 residues) co-expressed in baculovirus infected Sf9 cells to IC50 for inhibition of N-terminal His-tagged human DNMT3A (623 to 912 residues)/N-terminal GST-tagged human DNMT3L (160 to 387 residues) co-expressed in baculovirus infected Sf9 cells
[4] = biological target: DNA (cytosine-5)-methyltransferase 3A (Homo sapiens) (UniProt Q9Y6K1); assay: Inhibition of DNMT3A in human HCT-116 cells assessed as fold increase in p53 protein level at 1 uM incubated for 72 hrs by Western blot analysis relative to control; type: cell-based

Compound `Cc1oc2ncn(CCCN3CCCCC3)c(=O)c2c1C(=O)Nc1ccc(S(N)(=O)=O)nc1` has a Ratio IC50 [1] of 12.2, a Ratio IC50 [2] of 11.5 and a Ratio IC50 [3] of 49.8.
With `Cc1oc2ncn(CCN3CCCC3)c(=O)c2c1C(=O)Nc1ccc(S(N)(=O)=O)nc1` the Ratio IC50 [1] was 33.3, the Ratio IC50 [2] was > 1000 and the Ratio IC50 [3] was 269. It also gave a fold change (FC) [4] of 3.
`Cc1oc2ncn(CCCN3CCCC3)c(=O)c2c1C(=O)Nc1ccc(S(N)(=O)=O)nc1` gave a Ratio IC50 [1] of 5.3, a Ratio IC50 [2] of 171 and a Ratio IC50 [3] of 66.7.
For `Cc1oc2ncn(CCN(C)C)c(=O)c2c1C(=O)Nc1ccc(S(N)(=O)=O)nc1`, the Ratio IC50 [1] was 27.9, the Ratio IC50 [2] was > 667 and the Ratio IC50 [3] was 293. The fold change (FC) [4] was 3.
In the case of `Cc1oc2ncn(CCN3CCCCC3)c(=O)c2c1C(=O)Nc1ccc(S(N)(=O)=O)nc1`, the Ratio IC50 [1] is reported as 73.1, the Ratio IC50 [2] is reported as > 714 and the Ratio IC50 [3] is reported as > 143. It also gave a fold change (FC) [4] of 3.
